Experimental data reported in ChEMBL document CHEMBL5316306, “Discovery of Highly Selective Inhibitors of the Human Constitutive Proteasome β5c Chymotryptic Subunit” (J Med Chem, 2023).

Experiment: Selectivity index, ratio of IC50 for 20s immunoproteasome beta-5i subunit (unknown origin) to IC50 for 20s constitutive proteasome beta-5i subunit (unknown origin)

Ratio IC50: 710
Compound: CC(C)(C)NC(=O)C[C@H](NC(=O)C(=O)c1c[nH]c2ccccc12)C(=O)NCc1cccc(B(O)O)c1
